Antibody variant affinities, Ab-95 light chain, assay 2

Source: Engelhart et al. 2022 (doi:10.1038/s41597-022-01779-4), MIT Lincoln Laboratory and A-Alpha Bio; data file from the FLAb repository.

All variants were tested on one target, the spike HR2 peptide PDVDLGDISGINAS (SARS-CoV-2).

Parent: Ab-95, a human scFv built as VH, a (GGGGS)3 linker, VL. Only the CDRs of the light chain vary.
VH: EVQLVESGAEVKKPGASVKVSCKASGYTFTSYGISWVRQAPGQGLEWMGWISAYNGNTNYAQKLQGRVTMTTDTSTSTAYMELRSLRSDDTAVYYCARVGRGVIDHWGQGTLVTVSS
VL: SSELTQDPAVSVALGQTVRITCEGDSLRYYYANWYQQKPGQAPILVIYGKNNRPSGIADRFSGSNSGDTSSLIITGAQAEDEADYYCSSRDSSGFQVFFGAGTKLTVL

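Phage display of a naive human antibody library on the peptide gave the parent. The library (AAYL52) carries one to three amino acid substitutions per variant, with no insertions or deletions. Affinity was read by AlphaSeq, a pooled yeast mating assay with surface-displayed partners. The frequency of each diploid, read from paired DNA barcodes, reflects how well the two displayed proteins bind. Read counts were normalised to the haploid input and turned into Kd by a linear fit to BCL2-family pairs of known affinity, for each replicate. The assay was run in three technical replicates.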

Variants are written as CDR1, CDR2 and CDR3 of the light chain (limits as in the source). Parent: EGDSLRYYYAN, GKNNRPS, SSRDSSGFQVF.
The read-out is the apparent dissociation constant on a log10 scale (nM): the lower, the stronger.
A pair that was not seen in that replicate is written "nd"; this usually means weak binding, but a binder can also be missed.

CDR-L1 | CDR-L2 | CDR-L3 | log10 Kd (nM) by replicate | empty controls
EGDSLRYYYAN | GKNNRPS | SSRYSSDFQVF | 2.31 / 3.53 / 3.07 | 1/9 (3.67)
EGDSNRYYYAN | GKTNRPS | SSRESSGFQVF | 3.34 / 3.95 / 4.06 | 3/9 (4.64)
EGDSLRYYYAN | GKNNRVN | SSKDSSGFQVF | 5.26 / 3.67 / 4.04 | 4/9 (3.98)
EGDSLRYYYAN | GKNNMPS | SSRDSSGFWVF | 2.89 / nd / nd | 2/9 (3.56)
EGDSLRYYCAN | RKNNRPS | SSRSSSGFQVF | nd / nd / 3.69 | 2/9 (4.29)
EGDSLRYYYAN | KKNNRPS | SSRTASGFQVF | 5.13 / 5.66 / nd | 1/9 (3.84)
TGDSLRYYYAN | SKNNRPS | SSRDSSGFQVF | 3.12 / 2.77 / 2.67 | 7/9 (3.82)
ERDSLRYYYAN | GKNNRPS | SSRDSSGFQVR | 3.20 / 3.23 / 2.86 | 3/9 (4.11)
EGDSLRGYYAN | GKQNRPS | SSRDSSGVQVF | 2.89 / 2.86 / 2.25 | 6/9 (4.02)
EGDSLRYRYAE | GKNNRPS | SIRDSSGFQVF | 3.69 / 3.88 / nd | 6/9 (3.78)
AGDSLRYYYAN | GKVNRPS | SSRDSSFFQVF | 3.42 / nd / 3.55 | 5/9 (3.15)
EGDSTRYYYAN | GKNNTPS | SSCDSSGFQVF | 5.36 / nd / nd | 1/9 (4.51)
EGDSLRYYYAN | GKHNRPK | SSRDSSGFQVL | nd / nd / nd | 0/9
EGDSLRYYYAN | GCWNRPS | SSRDSSGRQVF | 3.71 / nd / 4.10 | 3/9 (3.72)
EGDSLRYYYAN | GYNNRPS | SSRDHSGFHVF | 3.20 / 3.02 / 3.44 | 5/9 (4.20)
EGDSLRYYYAN | GKANRPS | SSRDSSIFQVF | 3.61 / 3.84 / 4.21 | 2/9 (3.75)
EGDQLRYYYMN | VKNNRPS | SSRDSSGFQVF | nd / nd / nd | 0/9
EGDSLRYYYAN | GKTNRPS | SSRDSVGFEVF | nd / 3.11 / nd | 0/9
EGDSCRYYYAN | GKNNRPF | SSRDSSGFVVF | 3.09 / 2.60 / 3.42 | 2/9 (3.94)
EGDSWRYYYAN | GKNRRPS | SSRDSSGFAVF | 3.88 / nd / nd | 4/9 (3.89)
EGDSLRYTYNN | GKNPRPS | SSRDSSGFQVF | 5.09 / 5.77 / nd | 5/9 (4.19)
QGDSLRYYYAN | EKWNRPS | SSRDSSGFQVF | nd / nd / nd | 0/9
EGDSLRYYYAN | GKNNRPS | FSSDCSGFQVF | 2.41 / 2.31 / 2.01 | 4/9 (4.27)
EGDSLRYYYAN | GKNNRPS | SSRDSKLEQVF | 3.00 / 4.10 / nd | 2/9 (4.47)
EGDSLRYYYAN | WKQNRPS | SSRDSSGFAVF | nd / nd / nd | 6/9 (3.80)
EGDSLVYYYAN | HKNNRPS | SSRDGSGFQVF | nd / nd / 3.71 | 0/9
IGDSLRYYYAN | GKNNRPS | SRRDSEGFQVF | 3.48 / nd / nd | 4/9 (3.92)
HGDSLRYYYAN | GKNNRPS | DSRDSNGFQVF | 2.75 / 2.73 / 2.51 | 1/9 (5.23)
IGDSLRWYYAN | GKNNRCS | SSRDSSGFQVF | 2.96 / 3.35 / 3.19 | 1/9 (3.61)
EGDSLRLYYAR | GKNNRPS | SSRDSSGCQVF | 3.07 / nd / nd | 1/9 (2.87)

Excerpt, the first 3 entries:

CDR-L1,CDR-L2,CDR-L3,log10 Kd (nM) by replicate,empty controls
EGDSLRYYYAN,GKNNRPS,SSRYSSDFQVF,2.31 / 3.53 / 3.07,1/9 (3.67)
EGDSNRYYYAN,GKTNRPS,SSRESSGFQVF,3.34 / 3.95 / 4.06,3/9 (4.64)
EGDSLRYYYAN,GKNNRVN,SSKDSSGFQVF,5.26 / 3.67 / 4.04,4/9 (3.98)

Three control strains display no target. For library AAYL52, 28% of the pairings with them gave a signal, with a median of 3.91 and one signal in twenty below 2.90, so weak values seen in few replicates may be background. Also given: how often the same scFv was detected with the empty control strains, with their mean in brackets.